Laboratory results reported in article PMC6355318 (Bioorganic & Medicinal Chemistry Letters, 2019).

Conditions: passive permeability, 5 hours at room temperature

CN(C)Cc1ccn2c(-c3ccnc(N)n3)c(-c3ccc(F)cc3)nc2c1 [Compound 2, reference compound]
PAMPA: 11 ×10⁻⁶ cm/s
